Earlier results in patent publication US7083961B1 (priority 2002, dated 2006).

Protein sequences, listed by entry. Tags and fused reporters are not part of them.
UniProt P20839, whole entry: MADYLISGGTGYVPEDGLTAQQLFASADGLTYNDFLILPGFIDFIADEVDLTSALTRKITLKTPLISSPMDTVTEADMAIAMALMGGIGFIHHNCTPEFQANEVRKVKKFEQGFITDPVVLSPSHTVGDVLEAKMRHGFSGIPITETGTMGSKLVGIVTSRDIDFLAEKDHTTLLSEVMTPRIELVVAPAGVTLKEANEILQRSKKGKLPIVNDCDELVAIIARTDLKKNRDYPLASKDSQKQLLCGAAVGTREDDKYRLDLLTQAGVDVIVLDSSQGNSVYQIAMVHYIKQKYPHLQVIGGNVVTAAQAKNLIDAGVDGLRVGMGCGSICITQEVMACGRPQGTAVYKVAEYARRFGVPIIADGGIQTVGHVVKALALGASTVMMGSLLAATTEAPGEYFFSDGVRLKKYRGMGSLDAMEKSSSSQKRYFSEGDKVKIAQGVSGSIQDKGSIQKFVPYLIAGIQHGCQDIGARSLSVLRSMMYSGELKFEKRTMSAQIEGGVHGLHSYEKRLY

Target: human type I IMPDH (Homo sapiens, UniProt P20839)

In the case of NC(=O)c1ncn([C@@H]2O[C@H](COP(=O)(O)O)[C@@H](O)[C@H]2O)n1, the Ki is listed as 650 nM.
